This is an account of results in US5602102A, “Dipeptidyl peptidase-I inhibitors and uses thereof” (Board of Regents, The Univ. of TX System, priority 1992, dated 1997).

In assay [1] the target is propeptide-bearing form of human cathepsin G (human) (UniProt P08311). Put plainly: adsorption of 3H-isoleucine labelled extract of U-937 cells cultured with Gly-Phe-CHN2 to aprotinin-agarose; cathepsin G counted after immunoadsorption.
The target of assay [2] is human cathepsin G, mature enzymatically active form (human) (UniProt P08311). As to the kind of experiment: adsorption of 3H-isoleucine labelled control U-937 cell extract to aprotinin-agarose; cathepsin G counted after immunoadsorption.

Regarding aprotinin-agarose (from UniProt P00974), in assay [1], the aprotinin-agarose bound cpm worked out at 2380 cpm; the aprotinin-agarose bound, % of total cathepsin G-immunoreactive cpm is 4%; the aprotinin-agarose unbound cpm was determined as 57300 cpm; the aprotinin-agarose unbound, % of total cathepsin G-immunoreactive cpm worked out at 96%.
In assay [2], “aprotinin-agarose (from UniProt P00974) (other; other documents disagree on this pair)” returned an aprotinin-agarose bound cpm of 22900 cpm; an aprotinin-agarose bound, % of total cathepsin G-immunoreactive cpm of 48%; an aprotinin-agarose unbound cpm of 24400 cpm; an aprotinin-agarose unbound, % of total cathepsin G-immunoreactive cpm of 52%.
